Test results: US12565673B2, “Methods for the design of nonallosteric sirtuin activating compounds” (Chakrabarti Advanced Technology, LLC, priority 2020, dated 2026)

Experiments:
[1] = target: T1, hSirt3^102-399 (Homo sapiens, UniProt Q9NTG7)
T1 sequence (Q9NTG7 102-399): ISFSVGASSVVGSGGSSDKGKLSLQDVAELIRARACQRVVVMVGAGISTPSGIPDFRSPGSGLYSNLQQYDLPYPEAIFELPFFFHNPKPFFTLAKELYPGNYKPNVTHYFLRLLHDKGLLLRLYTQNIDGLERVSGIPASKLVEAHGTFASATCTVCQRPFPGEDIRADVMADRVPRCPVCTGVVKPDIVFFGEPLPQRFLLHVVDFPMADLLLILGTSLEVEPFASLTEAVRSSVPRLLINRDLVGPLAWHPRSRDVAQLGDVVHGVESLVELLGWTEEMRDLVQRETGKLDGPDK

[2] = target: T2, SIRT3 (Homo sapiens, UniProt Q9NTG7); settings: p53-AMC substrate
T2 sequence (Q9NTG7 102-399): T1 sequence (Q9NTG7 102-399)

[3] = target: T1, hSirt3^102-399; assay: hSirt3 ligand binding assay by microscale thermophoresis (MST); design: hSirt3^102-399 was expressed in E. coli Arctic Express (DE3) cells; His-tag (only implied by the HisTrap / imidazole purification); made in house; host or cells: E. coli Arctic Express (DE3)
Description: The binding affinities of ligands to complexes in the catalytic mechanism of SIRT3/MnSOD peptide substrate were measured using microscale thermophoresis (MST; FIG. 9, FIG. 10). In order to carry out binding affinity measurements on the reactive complex of enzyme, acylated peptide substrate and NAD^+, the catalytically inert molecule carba-NAD^+ was synthesized and used this NAD^+ analog for those MST studies.
The latter measurements in the presence of deacylated peptide were made in order to determine whether product inhibition plays any role in the observed kinetics.
DY-647P1-NHS-Ester conjugated hSirt3^102-399 was used for MST studies. Briefly, the protein conjugation was done in 1×PBS pH 7.4, 0.05% Pluronic F-127, and the labeled protein was buffer exchanged into 47 mM Tris-HCl pH 8.0, 129 mM NaCl, 2.5 mM KCl, 0.94 mM MgCl2, 5% DMSO, 0.05% Tween-20. We used 2 nM labeled hSirt3 and titrated with varying concentrations of the modulators in the absence and presence of various concentrations of substrates, products and intermediates. The thermophoresis was measured (excitation/emission 653/672 nm) using a Monolith NT. 115 Pico (NanoTemper Technologies) at 25° C. Dissociation constants (Kd) were determined using GraFit7 (Erithacus Software) by nonlinear fitting.

[4] = [E]0/[NAD^+]0=0.3, unsaturated HKL

effect on SIRT3 activity, non-steady state ([1]; 10 uM HKL, MnSOD substrate, [NAD^+]=50 uM, 1.5 min (FIG. 6B), p<=0.001): activation
effect on SIRT3 activity, pre-steady state phase ([1]; saturating HKL, MnSOD peptide substrate): pre-steady state activation
effect on SIRT3 activity, non-steady state condition [2, 4]: activation
effect on SIRT3 activity, steady state condition [2, 4]: inhibition effect
decrease in steady state catalytic efficiency ([2]; saturating HKL, absence of NAM): 3-4 fold
change of HKL binding affinity in the presence of NAM ([3]; Sirt3.Ac-MnSOD complex (FIG. 9D)): increase
effect of HKL on NAD^+ binding affinity (carba-NAD^+) ([3]; Sirt3.Ac-p53-AMC complex, 6.25 μM HKL (FIG. 11B)): decrease
change of HKL binding affinity in the presence of O-acetylated ADP ribose coproduct ([3]; product complex (FIG. 10A)): increase
SMILES: C=CCc1ccc(O)c(-c2ccc(O)c(CC=C)c2)c1 [HKL, 5, 3′-Diallyl-2, 4′-dihydroxybiphenyl]
